The source of these data is patent US20250109139A1, “TRICYCLIC COMPOUND, AND PREPARATION METHOD THEREFOR AND USE THEREOF” (SHANGHAITECH UNIVERSITY, priority 2022, published 2025).

Protein sequences, listed by entry. Tags and fused reporters are not part of them.
UniProt P14416, whole entry: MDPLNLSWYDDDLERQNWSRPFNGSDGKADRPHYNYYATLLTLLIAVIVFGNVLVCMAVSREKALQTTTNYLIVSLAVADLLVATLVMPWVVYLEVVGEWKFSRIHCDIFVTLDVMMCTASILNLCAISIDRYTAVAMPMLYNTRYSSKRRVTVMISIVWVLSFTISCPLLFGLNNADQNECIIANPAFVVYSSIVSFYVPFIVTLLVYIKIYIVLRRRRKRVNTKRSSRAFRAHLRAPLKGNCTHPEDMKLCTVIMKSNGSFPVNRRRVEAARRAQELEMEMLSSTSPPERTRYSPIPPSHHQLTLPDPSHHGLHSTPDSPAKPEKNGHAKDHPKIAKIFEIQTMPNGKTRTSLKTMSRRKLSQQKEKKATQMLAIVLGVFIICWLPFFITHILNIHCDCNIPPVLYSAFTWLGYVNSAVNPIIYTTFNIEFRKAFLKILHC
UniProt P08908, whole entry: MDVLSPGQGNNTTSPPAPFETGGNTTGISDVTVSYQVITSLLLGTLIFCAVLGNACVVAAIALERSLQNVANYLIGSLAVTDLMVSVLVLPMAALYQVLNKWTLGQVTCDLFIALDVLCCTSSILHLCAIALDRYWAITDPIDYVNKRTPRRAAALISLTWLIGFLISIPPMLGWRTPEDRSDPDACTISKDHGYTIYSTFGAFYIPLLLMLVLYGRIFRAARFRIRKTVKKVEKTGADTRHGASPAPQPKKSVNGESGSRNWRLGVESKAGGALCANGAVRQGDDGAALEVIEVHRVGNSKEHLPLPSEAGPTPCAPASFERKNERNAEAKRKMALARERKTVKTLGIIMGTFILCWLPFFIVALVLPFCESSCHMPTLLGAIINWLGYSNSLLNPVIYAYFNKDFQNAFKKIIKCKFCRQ

In experiment [1] the target is T1, dopamine D2 receptors (Homo sapiens (Human), UniProt P14416). Kind of experiment: Dopamine D2 receptor β-arrestin2 BRET (recruitment). The format is cell-based. The following applies: for Emax: relative to endogenous ligand dopamine, read-out: β-arrestin2 BRET Emax % ± SEM.
Experiment [2] concerns the target T1, dopamine D2 receptors. The experiment in a line: Dopamine D2 receptor Gαi1 BRET (G protein trimer dissociation). It is filed as cell-based.
Experiment [3] addresses T2, 5-hydroxytryptamine 1A (5-HT1A) receptors (Homo sapiens (Human), UniProt P08908). The experiment in a line: 5-HT1A receptor Gαi1 BRET (G protein trimer dissociation). It is filed as cell-based. The following applies: relative to endogenous ligand 5-hydroxytryptamine.
Experiment [4] addresses T2, 5-hydroxytryptamine 1A (5-HT1A) receptors. Kind of experiment: 5-HT1A receptor β-arrestin2 BRET (recruitment). It is filed as cell-based. The following applies: relative to endogenous ligand 5-hydroxytryptamine.
Experiment [5] concerns the target T1, dopamine D2 receptors. The experiment in a line: Dopamine D2 receptor radioligand competition binding assay ([3H]-Methylspiperone). The following applies: [3H]-Methylspiperone 0.3 to 0.5 nM, 293T membranes; read-out: Affinity Ki.

As to `COc1cccc2c3c(oc12)CN(CCCCOc1ccc2ccc(=O)[nH]c2c1)CC3` [I-A1, 7-(4-(8-methoxy-3,4-dihydrobenzofuro[2,3-c]pyridin-2(1H)-yl)butoxy)quinolin-2(1H)-one], the maximal response (Emax) on dopamine D2 receptors [1] was determined as 81%.

For `COc1cccc2c3c(oc12)CN(CC[C@H]1CC[C@H](NC(C)=O)CC1)CC3` [I-A11, N-(trans-4-(2-(8-methoxy-3,4-dihydrobenzofuro[2,3-c]pyridin-2(1H)-yl)ethyl)cyclohexyl)acetamide], the EC50 on dopamine D2 receptors [2] (D2 receptor, unit printed only in Cariprazine cell) was 9.34 nM; at dopamine D2 receptors [1] (read-out: β-arrestin2 BRET pEC50 ± SEM (converted)) it was 3.55 nM; on dopamine D2 receptors [1] (unit printed only in Cariprazine cell, read-out: β-arrestin2 BRET EC50), 3.8 nM. The Emax on dopamine D2 receptors [2] (read-out: Gαi1 BRET Emax % ± SEM) was 48%.

`COc1cccc2c3c(oc12)CN(CCNC(=O)C1CCOCC1)CC3` [I-A14, N-(2-(8-methoxy-3,4-dihydrobenzofuro[2,3-c]pyridin-2(1H)-yl)ethyl)tetrahydro-2H-pyran-4-carboxamide]: the Emax stood at 108% in experiment [3] and 101% in experiment [4].

As to `CCOc1cccc2c3c(oc12)CN(CCCCOc1ccc2ccc(=O)[nH]c2c1)CC3` [I-A16, 7-(4-(8-ethoxy-3,4-dihydrobenzofuro[2,3-c]pyridin-2(1H)-yl)butoxy)quinolin-2(1H)-one], on dopamine D2 receptors [1], the Emax came out at 31%.

Consider `CC(C)Oc1cccc2c3c(oc12)CN(CCCCOc1ccc2ccc(=O)[nH]c2c1)CC3` [I-A18, 7-(4-(8-isopropoxy-3,4-dihydrobenzofuro[2,3-c]pyridin-2(1H)-yl)butoxy)quinolin-2(1H)-one], for which the Ki on dopamine D2 receptors [5] was 88.8 nM.

For the molecule `COc1cccc2c3c(oc12)CN(CCCn1ncc(=O)n(C)c1=O)CC3` [I-A23, 2-(3-(8-methoxy-3,4-dihydrobenzofuro[2,3-c]pyridin-2(1H)-yl)propyl)-4-methyl-1,2,4-triazine-3,5(2H,4H)-dione], the Emax turned out to be 75.2% in experiment [3] and 41.8% in experiment [4].

In turn, `COc1cccc2c3c(oc12)CN(CCn1c(=O)[nH]c2ccccc21)CC3` [I-A24, 1-(2-(-methoxy-3,4-dihydrobenzofuro[2,3-c]pyridin-2(1H)-yl)ethyl)-1,3-dihydro-2H-benzo[d]imidazol-2-one] returned an Emax in experiment [3] of 107%.
